Experiments:
mMOR [1] = target: T1, mMOR (Mus musculus, UniProt P42866); test: BRET arrestin-3 recruitment at MOR with overexpressed GRK2, HEK 293T cells; type: cell-based; conditions: percentage of DAMGO
mMOR [2] = target: T1, mMOR; test: BRET Nb33 recruitment at MOR, HEK 293T cells; type: cell-based; conditions: percentage of DAMGO

The chains behind the UniProt entries cited, without tags or fusion partners.
UniProt P42866, whole entry: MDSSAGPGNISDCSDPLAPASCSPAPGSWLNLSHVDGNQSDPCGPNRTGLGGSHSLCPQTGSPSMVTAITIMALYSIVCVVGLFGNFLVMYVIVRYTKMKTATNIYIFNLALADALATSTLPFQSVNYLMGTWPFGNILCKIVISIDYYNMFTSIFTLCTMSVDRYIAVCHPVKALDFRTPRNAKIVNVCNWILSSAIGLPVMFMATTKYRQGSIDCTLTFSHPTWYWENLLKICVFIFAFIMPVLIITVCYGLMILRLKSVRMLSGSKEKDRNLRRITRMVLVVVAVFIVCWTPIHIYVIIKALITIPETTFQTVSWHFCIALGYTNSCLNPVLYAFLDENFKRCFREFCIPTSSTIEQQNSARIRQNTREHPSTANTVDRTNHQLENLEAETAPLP

Structure (SMILES): CCC1(CC)CC(OCCCN2CCN(c3cccc(C(F)(F)F)n3)CC2)(c2ccccn2)CCO1 (centres unmarked) [compound 102, 1-(3-((2,2-Diethyl-4-(pyridin-2-yl)tetrahydro-2H-pyran-4-yl)oxy)propyl)-4-(6-(trifluoromethyl)pyridin-2-yl)piperazine]
- MOR arr3 recruitment (+ GRK2) response at 10μM (mMOR [1]): 33.5% at 10μM (n=3)
- MOR Nb33 recruitment response at 10μM (mMOR [2]): 15.5 % at 10μM (n=3)

From paper PMC11091828 (Journal of medicinal chemistry, 2023)
